Values quoted from earlier work as cited in patent publication US12233205B2, “Thermal modulation of an inhalable medicament” (priority 2014, dated 2025).

Conditions: in vivo, po

Substance | bioavailability
Acetaminophen/Diphenhydramine | 65-100%
Ibuprofen/Diphenhydramine | 65-100%
